In general, inhibition refers to the relative decrease from the control value, in per cent.

Molecules are shown by their SMILES. Only a part is listed here, and it is no random draw. Calls of active or inactive are those of the source. Cut-off read from the data, not from the text of the source: active = inhibition above about 58%; inactive = the rest, inconclusive results apart; tested in S. cerevisiae.

This assay is described as follows: growth inhibition of WT strain, primary screen, mitochondrial fusion inhibitor project, WT and mutant strains, chemical genetic (AID 1362). The conditions noted are these: mitochondrial fusion phenotypic screen, at 10 µM, active compounds read high.
As for `Cc1c(NP(C)(=O)Oc2ccc(C(C)C)cc2)c(=O)n(-c2ccccc2)n1C` (stereo unspecified), the inhibition is inactive: 3.51%.
Take `O=[N+]([O-])c1cc([N+](=O)[O-])c(Nc2ccccn2)c([N+](=O)[O-])c1`: the inhibition is inactive: 22.8%.
In the case of `CC(C)CC(=O)NC(Sc1ccc(Cl)cc1)C(Cl)(Cl)Cl` (stereo unspecified), the inhibition is inactive: 31.4%.
For the compound `Oc1ccccc1CNc1ccccn1`, the inhibition is inactive: -13.8%.
Regarding `O=C(NC(Sc1ccncn1)C(Cl)(Cl)Cl)c1ccccc1` (stereo unspecified), the inhibition was inactive: -2.56%.
As for `Cc1c2non([O-])c-2c(C)[n+](=O)[n+]1[O-]`, the inhibition is inactive: -7.51%.
As to `CP(=O)(Nc1ccccn1)Oc1ccccc1` (stereo unspecified), the inhibition is inactive: -20.6%.
On to `COc1ccccc1OP(C)(=O)Nc1ccc(C)cc1C` (stereo unspecified), for which the inhibition was inactive: 19.6%.
For the compound `CCc1ccc(OP(C)(=O)O)cc1`, the inhibition was inactive: 10.4%.
The same measure for `NC(=O)c1cc([N+](=O)[O-])cc([N+](=O)[O-])c1N`: inactive: -11.4%; for `Cc1ccc(N/C(=N/P(=O)(N2CCOCC2)N2CCOCC2)N2CCOCC2)cc1`: inactive: -6.7%; for `COc1ccccc1OP(=O)(Nc1ccc(C)cn1)Oc1ccccc1OC`: inactive: 5.96%.
To `COc1ccc(OP(C)(=O)Nc2ccccn2)cc1` (stereo unspecified) belongs inactive: 4.9%.
As to `CN1CCCC(OC(=O)C(c2ccccc2)c2ccccc2)C1` (stereo unspecified), the inhibition was inactive: -17.5%.
Consider `CN(C)CCOC(=O)C(O)(c1ccccc1)C1CCCC1` (stereo unspecified), for which the inhibition is inactive: -5.82%.
To `Clc1ccc(Cl)c(NC2=NCC(CBr)S2)c1` (stereo unspecified) belongs inactive: 5.88%.
To `Cc1nc2ccc3ccccc3c2o1.O=[N+]([O-])c1cc([N+](=O)[O-])c(O)c([N+](=O)[O-])c1` belongs inactive: -3.54%; to `CCN(N=Nc1nonc1N)c1nonc1N`, inactive: -17.8%; to `CP(=O)(Nc1ccc(Cl)cc1Cl)Oc1ccccc1` (stereo unspecified), inactive: -7.07%.
On to `CP(=O)(OCCOc1ccccc1)OCCOc1ccccc1`, for which the inhibition was inactive: -19%.
The same measure for `Cc1cc(C)cc(OP(C)(=O)Nc2cccc(C(F)(F)F)c2)c1` (stereo unspecified): inactive: -10.4%; for `Cc1cc(SC(NC(=O)c2ccc(F)cc2)C(Cl)(Cl)Cl)ncn1` (stereo unspecified): inactive: -3.5%; for `CCOP(=O)(Nc1ccccc1)OCC`: inactive: 6.68%.
Regarding `COc1ccccc1OP(C)(=O)Nc1ccc(C)c(C)c1` (stereo unspecified), the inhibition is inactive: -9.48%.
Regarding `COc1ccc(OP(C)(=O)Nc2ccccc2Br)cc1` (stereo unspecified), the inhibition was inactive: 2.36%.
Consider `O=[N+]([O-])c1ncn(CCn2ncnc2[N+](=O)[O-])n1`, for which the inhibition is inactive: 3.79%.
As for `CCOC(=O)c1ccc(NP(C)(=O)Oc2ccc(Cl)cc2)cc1` (stereo unspecified), the inhibition is inactive: 8.42%.
Regarding `CP(=O)(OC12CC3CC(CC(C3)C1)C2)OC12CC3CC(CC(C3)C1)C2`, the inhibition is inactive: 57.9%.
Turning to `COc1ccccc1OP(C)(=O)Nc1ccccc1Br` (stereo unspecified), the inhibition was inactive: -4.16%.
To `CCN(/C(=N/P(=O)(N1CCOCC1)N1CCOCC1)N1CCOCC1)c1ccc(OC)cc1` belongs inactive: -4.51%; to `CP(=O)(Nc1ccc(Cl)cc1)Oc1ccc(F)cc1` (stereo unspecified), inactive: -9.51%; to `CC(C)=N/N=C(\N)N[N+](=O)[O-]`, inactive: -28.3%.
Take `CN(C)C(=O)c1c([N+](=O)[O-])cc([N+](=O)[O-])cc1[N+](=O)[O-]`: the inhibition is inactive: -13.4%.
Take `CN(C)C(=O)OCCc1n(C)cc[n+]1C`: the inhibition is inactive: -14.8%.
Take `CC1CCN(C(=O)Oc2c(Cl)cc(Cl)c3cccnc23)CC1`: the inhibition is inactive: -1.91%.
To `CCN(CC)CC(O)COC(=O)C(O)(c1ccccc1)C1CCCCC1` (stereo unspecified) belongs inactive: 1.68%; to `COc1ccc(C2=NCC(CBr)S2)cc1` (stereo unspecified), inactive: -21.6%.
Regarding `COc1ccc(OP(C)(=O)Nc2ccc(Br)cc2)cc1` (stereo unspecified), the inhibition was inactive: -8.22%.
As to `CC(=O)N1C2C3N(C(C)=O)C1C1N(C(C)=O)C(C(N1C(C)=O)N3C(C)=O)N2C(C)=O`, the inhibition was inactive: 22.2%.
To `O=[N+]([O-])c1cccc2n[nH]nc12` belongs inactive: -5.37%.
For the compound `Cc1ccc(NP(=O)(Oc2ccccc2)Oc2ccccc2)nc1`, the inhibition was inactive: -20%.
Turning to `CP(=O)(Oc1ccccc1)N1CCOC1=O` (stereo unspecified), the inhibition is inactive: 16.1%.
Regarding `CCc1ccc(OP(C)(=O)Nc2cccnc2)cc1` (stereo unspecified), the inhibition is inactive: -13.3%.
For the compound `O=[N+]([O-])c1cc([N+](=O)[O-])c(CCNc2ccccc2)c([N+](=O)[O-])c1`, the inhibition is inactive: 34.1%.
With `CCc1nc2c(n1)c1c(non1O)c1c2no[n+]1[O-]`, the inhibition is inactive: 22%.
`CP(=O)(Nc1ccc2c(c1)OCCO2)Oc1ccccc1` (stereo unspecified): the inhibition was inactive: -1.41%.
Turning to `Cc1ccccc1NP(C)(=O)Nc1ccccc1C`, the inhibition was inactive: -3.91%.
The same measure for `O=P(Nc1nccs1)(c1ccccc1)c1ccccc1`: inactive: -12.9%.
For `CC(C)C(=O)NC(Sc1ccccc1)C(Cl)(Cl)Cl` (stereo unspecified), the inhibition was inactive: 1.03%.
Consider `CCOP(C)(=S)SCC(=O)NC(C)(CC)C(=O)O` (stereo unspecified), for which the inhibition is inactive: 2.99%.
For the compound `c1nnnn1CCn1cnnn1`, the inhibition was inactive: -12.7%.
With `CC(=O)NC(SC(=S)N(C)C)C(Cl)(Cl)Cl` (stereo unspecified), the inhibition was inactive: 2.58%.
`O=[N+]([O-])c1cc([N+](=O)[O-])c(NCC2CCS(=O)(=O)C2)c([N+](=O)[O-])c1` (stereo unspecified): the inhibition was inactive: -2.42%.
For `C(Cc1nn[nH]n1)Cc1nn[nH]n1`, the inhibition was inactive: -5.91%.
To `O=C(OC1CN2CCC1CC2)c1cccc(Cl)c1` (stereo unspecified) belongs inactive: -1.31%; to `COc1ccc(OP(C)(=O)Nc2cccc(Br)c2)cc1` (stereo unspecified), inactive: -23.8%; to `O=P(Nc1ccccn1)(c1ccc(Br)cc1)c1ccc(Br)cc1`, inactive: -1.08%.
Regarding `CN(C)CCOC(=O)C(O)(c1ccccc1)C1CCCCC1` (stereo unspecified), the inhibition was inactive: -4.86%.
To `COc1ccc(NP(C)(=O)Oc2ccccc2OC)cc1` (stereo unspecified) belongs inactive: -3.08%.
Regarding `COC(=O)c1cc2c(s1)N=C(c1ccccc1)N(C)P2(=O)N1CCOCC1` (stereo unspecified), the inhibition is inactive: 11%.
`Cc1ccc(OP(=O)(Nc2ccccn2)Oc2ccc(C)cc2)cc1`: the inhibition was inactive: 36.2%.
To `CCC(=O)N1C2C3N(C(=O)CC)C1C1N(C(=O)CC)C(C(N1C(=O)CC)N3C(=O)CC)N2C(=O)CC` belongs inactive: -20.8%.
As for `CCN(CC)CCCOC(=O)C(O)(c1ccccc1)C1CCCCC1` (stereo unspecified), the inhibition was inactive: -8.41%.
With `CP(=O)(Nc1ccccc1)Oc1ccc(F)cc1` (stereo unspecified), the inhibition is inactive: -12.6%.
On to `O=c1c2cc([N+](=O)[O-])ccc2[nH]c2c([N+](=O)[O-])cc([N+](=O)[O-])cc12`, for which the inhibition was inactive: 96.2%.
For the compound `O=C(NC1CCS(=O)(=O)C1)NP(=S)(Oc1ccccc1)Oc1ccccc1` (stereo unspecified), the inhibition is inactive: -13.1%.
As for `CCNC(=S)/N=C(\N)N[N+](=O)[O-]`, the inhibition was inactive: 5.31%.
Regarding `c1ccc(-c2nn[nH]n2)c(-c2nn[nH]n2)c1`, the inhibition is inactive: -6.5%.
For `CCOC(=O)NC(Sc1ccccc1)C(Cl)(Cl)Cl` (stereo unspecified), the inhibition is inactive: 27.1%.
For `CCOC(=O)c1ccc(NP(C)(=O)Oc2ccc(F)cc2)cc1` (stereo unspecified), the inhibition is inactive: 3.21%.
The same measure for `COc1ccc(OP(C)(=O)Nc2ccc(SC(F)(F)F)cc2)cc1` (stereo unspecified): inactive: 33.1%; for `O=C(OCCN1CCN(CCOCc2ccccc2)CC1)C(O)(c1ccccc1)c1ccccc1`: inactive: -6.54%.
To `CC(=O)Nc1ccc(Oc2c([N+](=O)[O-])cc([N+](=O)[O-])cc2[N+](=O)[O-])cc1` belongs inactive: 7.31%; to `O=P1(Nc2nc3ccc(Cl)cc3s2)COc2ccccc2O1` (stereo unspecified), inactive: 8.77%; to `CCOc1ccc(C2=NCC(CBr)S2)cc1` (stereo unspecified), inactive: 12.5%.
For `CP(=O)(Nc1ccccc1F)Oc1ccccc1` (stereo unspecified), the inhibition was inactive: -4.03%.
The same measure for `CC(C)(C)C(=O)NC(Sc1ccccc1)C(Cl)(Cl)Cl` (stereo unspecified): inactive: 7.63%; for `CC(C)c1ccc(OP(C)(=O)Nc2ccc(SC(F)(F)F)cc2)cc1` (stereo unspecified): inactive: 11.7%.
Take `Cc1ccc(C)c(NP(C)(=O)Oc2ccccc2)c1` (stereo unspecified): the inhibition was inactive: 5.43%.
On to `Cc1cc(C)cc(OP(C)(=O)Nc2ccccn2)c1` (stereo unspecified), for which the inhibition was inactive: -5.68%.
With `CP(=O)(Nc1cccc(Br)c1)Oc1ccccc1` (stereo unspecified), the inhibition was inactive: -28%.
Take `Cc1ccc(NCCc2c([N+](=O)[O-])cc([N+](=O)[O-])cc2[N+](=O)[O-])cc1`: the inhibition was inactive: 41.9%.
For the compound `CCOP(=O)(Nc1cccc2ccccc12)OCC`, the inhibition is inactive: 9.27%.
For the compound `COc1cc(C(=O)NCC2(N3CCOCC3)CCCCC2)cc(Cl)c1OC(C)C`, the inhibition was inactive: 10.8%.
For `CCOC(=O)c1ccc(NP(C)(=O)Oc2cc(C)cc(C)c2)cc1` (stereo unspecified), the inhibition is inactive: 3.08%.
With `Cc1cccc(OCC(=O)OC2CN3CCC2CC3)c1` (stereo unspecified), the inhibition was inactive: -1.76%.
With `Cc1cc(C)cc(OP(C)(=O)Nc2ccc(C)cc2C)c1` (stereo unspecified), the inhibition is inactive: 2.66%.
In the case of `O=[N+]([O-])c1ccc2c(c1)nnn2O`, the inhibition is inactive: -12.4%.
In the case of `CC1=NCCc2c1[nH]c1ccccc21.O=[N+]([O-])c1cc([N+](=O)[O-])c(O)c([N+](=O)[O-])c1`, the inhibition was inactive: 13.9%.
As for `CCOP1(=S)c2c(C)nn(CCC#N)c2N=C(c2ccc(F)cc2)N1C` (stereo unspecified), the inhibition is inactive: -2.82%.
Take `CCOP1(=S)c2c(C)nn(CCC#N)c2N=C(c2ccccc2F)N1C` (stereo unspecified): the inhibition is inactive: -7.65%.
For the compound `O=P(Nc1nccs1)(Oc1ccccc1)Oc1ccccc1`, the inhibition is inactive: 4.32%.
To `O=P(Nc1nccs1)(c1ccccc1)c1nc2ccccc2s1` (stereo unspecified) belongs inactive: -5.02%.
`CN1CCCCC1COC(=O)C1(O)c2ccccc2CCc2ccccc21` (stereo unspecified): the inhibition is inactive: -0.85%.
The same measure for `COc1ccccc1OP(C)(=O)Nc1c(C)cccc1C` (stereo unspecified): inactive: 15.2%; for `O=P1(Nc2ncccn2)COc2ccccc2OC1`: inactive: 9.12%; for `Cc1ccc(OCC(=O)OC2CN3CCC2CC3)cc1` (stereo unspecified): inactive: 3.54%.
The same measure for `O=P1(Nc2ccc(Br)cn2)COc2ccccc2OC1`: inactive: -0.44%; for `CCCOc1ccc(NP(C)(=O)Oc2ccc(Cl)cc2)cc1` (stereo unspecified): inactive: 3.82%.
Regarding `CP(=O)(Nc1ccc(SC(F)(F)F)cc1)Oc1ccccc1` (stereo unspecified), the inhibition was inactive: 18%.
To `COc1cc(C2NCCC3(OCCO3)C2(C)C)cc(OC)c1OC.O=[N+]([O-])c1cc([N+](=O)[O-])c(O)c([N+](=O)[O-])c1` (stereo unspecified) belongs inactive: 25.3%.

For the origin of these results see PubChem BioAssay AID1362 (SRMLSC, 2008).
